Assay [1] concerns the target T1, Nav 1.7 (Homo sapiens (Human), UniProt Q15858). Briefly: in-vitro Nav 1.7 PX data. The conditions noted are these: read-out: Nav 1.7 PX IC50. It counts as cell-based.
Assay [2] addresses T1, Nav 1.7. Put plainly: Nav 1.7 in vitro PX assay (PatchXpress whole cell voltage clamp).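 Note: holding potential set for 20 to 50% inactivation, sodium current evoked by a 20 ms step to −10 mV, peak current inhibition read after compound exposure, 3–5 cells per concentration.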 The following applies: read-out: Nav 1.7 PX IC50. It counts as cell-based.

By UniProt entry, the sequences of proteins in these tests, tags left out.
UniProt Q15858, whole entry: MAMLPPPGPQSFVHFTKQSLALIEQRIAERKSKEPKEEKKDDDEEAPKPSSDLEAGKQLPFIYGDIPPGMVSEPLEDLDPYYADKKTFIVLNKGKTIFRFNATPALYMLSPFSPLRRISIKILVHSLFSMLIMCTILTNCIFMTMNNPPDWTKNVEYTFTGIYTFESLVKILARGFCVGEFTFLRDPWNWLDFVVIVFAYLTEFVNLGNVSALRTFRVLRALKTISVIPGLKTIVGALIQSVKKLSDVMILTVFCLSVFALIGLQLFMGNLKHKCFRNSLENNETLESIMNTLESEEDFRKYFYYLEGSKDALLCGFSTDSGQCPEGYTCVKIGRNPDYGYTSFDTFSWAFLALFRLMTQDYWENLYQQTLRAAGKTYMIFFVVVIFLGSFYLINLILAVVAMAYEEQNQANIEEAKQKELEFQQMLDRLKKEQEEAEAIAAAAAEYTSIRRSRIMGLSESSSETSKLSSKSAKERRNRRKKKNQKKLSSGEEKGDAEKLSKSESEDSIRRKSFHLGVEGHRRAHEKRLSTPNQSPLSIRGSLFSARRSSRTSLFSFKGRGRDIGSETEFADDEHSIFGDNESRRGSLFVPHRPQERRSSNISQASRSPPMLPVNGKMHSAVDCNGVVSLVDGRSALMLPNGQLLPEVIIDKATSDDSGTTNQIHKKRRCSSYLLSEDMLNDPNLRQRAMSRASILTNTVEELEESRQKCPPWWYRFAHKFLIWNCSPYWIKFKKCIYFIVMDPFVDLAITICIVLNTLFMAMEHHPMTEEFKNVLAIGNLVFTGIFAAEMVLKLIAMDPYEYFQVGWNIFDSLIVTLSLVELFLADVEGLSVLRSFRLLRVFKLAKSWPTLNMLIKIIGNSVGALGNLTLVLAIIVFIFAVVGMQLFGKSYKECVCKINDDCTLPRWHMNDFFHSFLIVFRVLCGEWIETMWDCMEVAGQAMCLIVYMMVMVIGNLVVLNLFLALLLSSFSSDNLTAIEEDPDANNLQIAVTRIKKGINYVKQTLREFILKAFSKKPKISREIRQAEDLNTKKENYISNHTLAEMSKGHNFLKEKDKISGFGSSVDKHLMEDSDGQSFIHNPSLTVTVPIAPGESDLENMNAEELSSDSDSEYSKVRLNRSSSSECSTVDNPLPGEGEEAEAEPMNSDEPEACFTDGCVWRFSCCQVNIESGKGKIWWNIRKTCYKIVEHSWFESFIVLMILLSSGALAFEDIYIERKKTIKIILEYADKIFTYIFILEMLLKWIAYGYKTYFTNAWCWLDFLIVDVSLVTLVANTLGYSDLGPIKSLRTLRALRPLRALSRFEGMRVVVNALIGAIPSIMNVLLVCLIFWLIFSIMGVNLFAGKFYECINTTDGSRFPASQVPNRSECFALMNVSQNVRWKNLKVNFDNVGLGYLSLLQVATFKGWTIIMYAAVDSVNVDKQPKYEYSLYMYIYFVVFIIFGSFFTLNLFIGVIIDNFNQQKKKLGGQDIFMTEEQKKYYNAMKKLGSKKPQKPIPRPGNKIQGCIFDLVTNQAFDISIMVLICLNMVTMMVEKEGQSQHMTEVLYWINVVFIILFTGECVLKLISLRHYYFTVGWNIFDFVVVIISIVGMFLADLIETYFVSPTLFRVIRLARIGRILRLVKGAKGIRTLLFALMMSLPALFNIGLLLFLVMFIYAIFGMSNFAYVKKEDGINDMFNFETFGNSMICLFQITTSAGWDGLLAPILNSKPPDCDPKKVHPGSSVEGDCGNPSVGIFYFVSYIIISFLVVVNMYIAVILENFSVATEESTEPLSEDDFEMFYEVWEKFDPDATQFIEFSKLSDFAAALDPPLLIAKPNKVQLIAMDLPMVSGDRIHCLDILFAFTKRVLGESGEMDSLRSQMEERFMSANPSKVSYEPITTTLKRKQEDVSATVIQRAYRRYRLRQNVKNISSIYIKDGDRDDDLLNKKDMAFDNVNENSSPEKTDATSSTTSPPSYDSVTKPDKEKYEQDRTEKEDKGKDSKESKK

For `COc1cc(-c2cccc(C(F)(F)F)c2)c(C#N)cc1-c1nccc2cc(S(=O)(=O)Nc3ccon3)ccc12`, on Nav 1.7 [1], the IC50 worked out at 25.8 nM.
As for `COc1cc(-c2ccc(Cl)c(C)c2)c(Cl)cc1-c1ncnc2cc(S(=O)(=O)Nc3ncccn3)ccc12`, on Nav 1.7 [2], the half-maximal inhibitory concentration (IC50) is 87 nM.
Consider `COc1cc(-c2ccc(Cl)c(C)c2)c(C)cc1-c1ncnc2cc(S(=O)(=O)Nc3ncccn3)ccc12`, for which the IC50 at Nav 1.7 [2] (HEK 293 cells stably transfected with human Nav1.7, PatchXpress, partially inactivated state) turned out to be 104 nM.

For orientation: IC50 means the concentration at which inhibition is half-maximal.
